Among the data in US6403594B1, “Benzopyran derivatives” (Recordati, S.A. Chemical and Pharmaceutical Company, priority 1999, dated 2002) are Ki values, retold here.

Sequences of proteins named here, by UniProt entry; tags and fusion partners are left off.
UniProt P25100, whole entry: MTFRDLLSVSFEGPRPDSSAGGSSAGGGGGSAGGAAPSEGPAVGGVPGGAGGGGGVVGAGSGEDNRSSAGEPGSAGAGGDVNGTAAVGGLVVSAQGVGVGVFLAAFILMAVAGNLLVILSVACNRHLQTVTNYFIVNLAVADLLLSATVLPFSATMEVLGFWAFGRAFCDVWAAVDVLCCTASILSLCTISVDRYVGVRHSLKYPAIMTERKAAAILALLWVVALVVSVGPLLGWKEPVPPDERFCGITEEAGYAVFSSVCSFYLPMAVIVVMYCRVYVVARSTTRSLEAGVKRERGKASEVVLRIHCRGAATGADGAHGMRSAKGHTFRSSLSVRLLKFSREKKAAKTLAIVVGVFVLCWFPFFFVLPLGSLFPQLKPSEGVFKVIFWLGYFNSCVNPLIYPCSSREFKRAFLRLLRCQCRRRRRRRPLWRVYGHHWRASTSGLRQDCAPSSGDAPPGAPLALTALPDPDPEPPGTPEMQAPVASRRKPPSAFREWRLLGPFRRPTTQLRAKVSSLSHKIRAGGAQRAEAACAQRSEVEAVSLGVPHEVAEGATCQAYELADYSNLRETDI

A word on the Ki: it is a dissociation constant, usually derived from enzyme kinetics or from competition with a known ligand.

Assay [1] has as its target T1, α1a-adrenoceptor (recombinant) (Homo sapiens, UniProt P35348).
T1 sequence (P35348 1-466): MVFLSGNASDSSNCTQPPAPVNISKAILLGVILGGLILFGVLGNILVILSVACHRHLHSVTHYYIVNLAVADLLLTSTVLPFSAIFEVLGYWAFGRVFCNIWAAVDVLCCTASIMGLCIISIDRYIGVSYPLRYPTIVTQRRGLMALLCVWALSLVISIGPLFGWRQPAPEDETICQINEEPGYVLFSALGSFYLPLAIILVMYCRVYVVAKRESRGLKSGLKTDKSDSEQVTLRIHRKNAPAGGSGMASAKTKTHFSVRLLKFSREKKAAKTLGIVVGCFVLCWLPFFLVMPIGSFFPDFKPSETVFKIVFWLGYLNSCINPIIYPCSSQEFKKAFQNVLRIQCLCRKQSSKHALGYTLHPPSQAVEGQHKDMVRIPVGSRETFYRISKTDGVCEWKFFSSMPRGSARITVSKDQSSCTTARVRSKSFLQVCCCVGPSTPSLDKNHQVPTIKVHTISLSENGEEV
Kind of assay: Radioligand binding, cloned α1a-adrenoceptor ([3H]prazosin).

Assay [2] addresses α1d-adrenoceptor (recombinant) (Homo sapiens, UniProt P25100). Description: Radioligand binding, cloned α1d-adrenoceptor ([3H]prazosin).

In the case of `COc1ccccc1N1CCN(CCCNC(=O)c2cccc3c(=O)c(C)c(-c4ccccc4)oc23)CC1` [Compound A, reference compound], the Ki in assay [1] turned out to be 0.65 nM; in assay [2] it was 1.51 nM.
